Literature values as cited in patent US20260053940A1, “PHARMACEUTICAL COMPOSITION OF ANTIBODY DRUG CONJUGATE” (GENEQUANTUM HEALTHCARE (SUZHOU) CO., LTD., priority 2022, published 2026).

Conditions: cited from earlier work

For Enhertu, the “interstitial lung disease, share of patients” value is listed as “no less than 10%”.
